Data from patent US20150366852A1, “Prevention of Obesity in Antipsychotic, Antidepressant and Antiepileptic Medication” (N-Gene Research Laboratories, Inc., priority 2006, published 2015).

System: female Wistar rats
Settings: 28 days; for Average weight relative to the control group (in words): compound alone

| Structure (SMILES) | Average weight relative to the control group (in words) | Effect on the weight gain induced by olanzapine (in words) (together with olanzapine 1 mg/kg) |
| --- | --- | --- |
| CN(C)C(=N)N=C(N)N [Metformin] | somewhat higher average weight | did not reduce |
| Cc1cc2c(s1)Nc1ccccc1N=C2N1CCN(C)CC1 [Olanzapine, 2-methyl-4-(4-methyl-1-piperazinyl)-10H-thieno[2,3-b][1,5]-benzodiazepine] | significantly greater average weight than the control group | – |
